# PubChem BioAssay AID1347073 (National Center for Advancing Translational Sciences (NCATS), 2019)
# This is a selection; strong and weak results do not stand in their true shares. Results filed as inconclusive are left out. The source made the active and inactive calls. Calls follow the shape of the dose curve; as a rule, active = well fitted activation curve with a large enough effect; inconclusive = small, poorly fitted or top-dose-only effect; inactive = no such curve, though single readings can be large or run the other way.
# Assay: qHTS of TDP-43 Inhibitors: NCGC Sytravon Library Screen; also: 0% is about no effect; nearly all actives have a fitted effect of over 55% in size
# Settings: yeast TDP-43 toxicity rescue, BacTiter-Glo growth, 24 h; at 46.1 µM (top of the series)
# From the text: The goal of this project is to identify new chemical probes capable of reversing the toxicity associated with TDP-43 which is associated with frontotemporal lobar degeneration and amyotrophic lateral sclerosis. These compounds will provide a complementary approach to deciphering the tangled mechanisms of toxicity and protection that we have uncovered through genome-wide genetic screens and are beginning to uncover in a large-scale proteomics analysis with mass spectroscopy. To this end, a miniaturized assay was developed to be screened against the Molecular Libraries Small Molecule Repository (MLSMR) to discover TDP-43 inhibitors. Please note that in the set-up this yeast-based assay compounds that inhibit as TDP-43, have a read-out as activators. NIH Chemical Genomics Center [NCGC] NIH Molecular Libraries Probe Centers Network [MLPCN] Assay Submitter (PI): Susan Lindquist, Whitehead Institute/MIT MLPCN Grant: R21 NS060957
# Dispense 2.5 microL yeast galactose medium per 1536-well plate, pin compound, dispense 2.5 microL TDP-43 expressing yeast in galactose medium at OD600=0.02 (pregrown in raffinose medium to mid-log phase) per well, incubate for 24 hr at 30 deg C, and cell growth will be measured using 5 microL of Bactiter/Glo reagent to entire plate and read using Luminescence Protocol in ViewLux.
row,Compound,growth rescue (activation)
1,O=[N+]([O-])c1cc([N+](=O)[O-])c(-n2nnc3ccccc32)c([N+](=O)[O-])c1,inactive: -12.4%
2,CP(=O)(Nc1cccc(Br)c1)Oc1ccccc1 (stereo unspecified),inactive: 4.78%
3,CN(C)C(=O)c1c([N+](=O)[O-])cc([N+](=O)[O-])cc1[N+](=O)[O-],inactive: 13.7%
4,COc1ccccc1OP(C)(=O)Nc1ccc(C)c(C)c1 (stereo unspecified),inactive: -3.89%
5,COc1ccccc1OP(C)(=O)Nc1ccc(Br)cc1 (stereo unspecified),inactive: 29.3%
6,CCCCCOc1ccc(NP(C)(=O)Oc2ccc(Cl)cc2Cl)cc1 (stereo unspecified),inactive: -45.1%
